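Assay format: 96-well plates, 48-hour exposure. The concentration for 50% growth inhibition is given as GI50. TGI is the concentration that stops growth completely.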
Tests used:
Assay in all cases: inhibition of tumour cell growth, NCI panel, 48 h; in the data active = GI50 below about 0.43 µM; inactive = the rest
786-0 renal = test system: 786-0 renal
A549 NSCLC = test system: A549 NSCLC
ACHN renal = test system: ACHN renal
BT-549 breast = test system: BT-549 breast
CAKI-1 renal = test system: CAKI-1 renal
CCRF-CEM leukemia = test system: CCRF-CEM leukemia
COLO 205 colon = test system: COLO 205 colon
DU-145 prostate = test system: DU-145 prostate
EKVX NSCLC = test system: EKVX NSCLC
HCC-2998 colon = test system: HCC-2998 colon
HCT-116 colon = test system: HCT-116 colon
HCT-15 colon = test system: HCT-15 colon
HL-60(TB) leukemia = test system: HL-60(TB) leukemia
HOP-62 NSCLC = test system: HOP-62 NSCLC
HOP-92 NSCLC = test system: HOP-92 NSCLC
HS 578T breast = test system: HS 578T breast
HT29 colon = test system: HT29 colon
IGROV1 ovarian = test system: IGROV1 ovarian
K-562 leukemia = test system: K-562 leukemia
KM12 colon = test system: KM12 colon
LOX IMVI melanoma = test system: LOX IMVI melanoma
M14 melanoma = test system: M14 melanoma
MALME-3M melanoma = test system: MALME-3M melanoma
MCF7 breast = test system: MCF7 breast
MDA-MB-231 breast = test system: MDA-MB-231 breast
MDA-MB-435 = test system: MDA-MB-435
MDA-N = test system: MDA-N
MOLT-4 leukemia = test system: MOLT-4 leukemia
NCI-H226 lung = test system: NCI-H226 lung
NCI-H23 lung = test system: NCI-H23 lung
NCI-H322M lung = test system: NCI-H322M lung
NCI-H522 lung = test system: NCI-H522 lung
NCI/ADR-RES ovarian = test system: NCI/ADR-RES ovarian
OVCAR-3 ovarian = test system: OVCAR-3 ovarian
OVCAR-4 ovarian = test system: OVCAR-4 ovarian
OVCAR-5 ovarian = test system: OVCAR-5 ovarian
OVCAR-8 ovarian = test system: OVCAR-8 ovarian
PC-3 prostate = test system: PC-3 prostate
RPMI-8226 leukemia = test system: RPMI-8226 leukemia
RXF 393 renal = test system: RXF 393 renal
SF-268 CNS = test system: SF-268 CNS
SF-295 CNS = test system: SF-295 CNS
SF-539 CNS = test system: SF-539 CNS
SK-MEL-2 melanoma = test system: SK-MEL-2 melanoma
SK-MEL-28 melanoma = test system: SK-MEL-28 melanoma
SK-MEL-5 melanoma = test system: SK-MEL-5 melanoma
SK-OV-3 ovarian = test system: SK-OV-3 ovarian
SN12C renal = test system: SN12C renal
SNB-19 CNS = test system: SNB-19 CNS
SNB-75 CNS = test system: SNB-75 CNS
SW-620 colon = test system: SW-620 colon
T-47D breast = test system: T-47D breast
TK-10 renal = test system: TK-10 renal
U251 CNS = test system: U251 CNS
UACC-257 melanoma = test system: UACC-257 melanoma
UACC-62 melanoma = test system: UACC-62 melanoma
UO-31 renal = test system: UO-31 renal

NS(=O)(=O)c1ccc(NC2=NCC(CI)S2)cc1 (centres undefined)
inactive: GI50 (786-0 renal) > 100 µM | GI50 (A549 NSCLC) > 100 µM | GI50 (ACHN renal) > 100 µM | GI50 (BT-549 breast) > 100 µM | GI50 (CAKI-1 renal) > 100 µM | GI50 (CCRF-CEM leukemia) > 100 µM | GI50 (COLO 205 colon) > 100 µM | GI50 (DU-145 prostate) > 100 µM | GI50 (EKVX NSCLC) > 100 µM | GI50 (HCC-2998 colon) > 100 µM | GI50 (HCT-116 colon) > 100 µM | GI50 (HCT-15 colon) > 100 µM | GI50 (HL-60(TB) leukemia) > 100 µM | GI50 (HOP-62 NSCLC) > 100 µM | GI50 (HOP-92 NSCLC) > 100 µM | GI50 (HS 578T breast) > 100 µM | GI50 (HT29 colon) > 100 µM | GI50 (IGROV1 ovarian) > 100 µM | GI50 (K-562 leukemia) > 100 µM | GI50 (KM12 colon) > 100 µM | GI50 (LOX IMVI melanoma) > 100 µM | GI50 (M14 melanoma) > 100 µM | GI50 (MALME-3M melanoma) > 100 µM | GI50 (MCF7 breast) > 100 µM | GI50 (MDA-MB-231 breast) > 100 µM | GI50 (MDA-MB-435) > 100 µM | GI50 (MDA-N) > 100 µM | GI50 (MOLT-4 leukemia) > 100 µM | GI50 (NCI-H226 lung) 95 µM | GI50 (NCI-H23 lung) > 100 µM | GI50 (NCI-H322M lung) > 100 µM | GI50 (NCI-H522 lung) > 100 µM | GI50 (NCI/ADR-RES ovarian) > 100 µM | GI50 (OVCAR-3 ovarian) > 100 µM | GI50 (OVCAR-4 ovarian) > 100 µM | GI50 (OVCAR-5 ovarian) > 100 µM | GI50 (OVCAR-8 ovarian) > 100 µM | GI50 (PC-3 prostate) > 100 µM | GI50 (RPMI-8226 leukemia) 33.5 µM | GI50 (RXF 393 renal) > 100 µM | GI50 (SF-268 CNS) > 100 µM | GI50 (SF-295 CNS) > 100 µM | GI50 (SF-539 CNS) > 100 µM | GI50 (SK-MEL-2 melanoma) > 100 µM | GI50 (SK-MEL-28 melanoma) > 100 µM | GI50 (SK-MEL-5 melanoma) > 100 µM | GI50 (SK-OV-3 ovarian) > 100 µM | GI50 (SN12C renal) > 100 µM | GI50 (SNB-19 CNS) > 100 µM | GI50 (SNB-75 CNS) 98.4 µM | GI50 (SW-620 colon) > 100 µM | GI50 (T-47D breast) > 100 µM | GI50 (TK-10 renal) > 100 µM | GI50 (U251 CNS) > 100 µM | GI50 (UACC-257 melanoma) > 100 µM | GI50 (UACC-62 melanoma) > 100 µM | GI50 (UO-31 renal) > 100 µM
> 100 µM: TGI (786-0 renal) | TGI (A549 NSCLC) | TGI (ACHN renal) | TGI (BT-549 breast) | TGI (CAKI-1 renal) | TGI (CCRF-CEM leukemia) | TGI (COLO 205 colon) | TGI (DU-145 prostate) | TGI (EKVX NSCLC) | TGI (HCC-2998 colon) | TGI (HCT-116 colon) | TGI (HCT-15 colon) | TGI (HL-60(TB) leukemia) | TGI (HOP-62 NSCLC) | TGI (HOP-92 NSCLC) | TGI (HS 578T breast) | TGI (HT29 colon) | TGI (IGROV1 ovarian) | TGI (K-562 leukemia) | TGI (KM12 colon) | TGI (LOX IMVI melanoma) | TGI (M14 melanoma) | TGI (MALME-3M melanoma) | TGI (MCF7 breast) | TGI (MDA-MB-231 breast) | TGI (MDA-MB-435) | TGI (MDA-N) | TGI (MOLT-4 leukemia) | TGI (NCI-H226 lung) | TGI (NCI-H23 lung) | TGI (NCI-H322M lung) | TGI (NCI-H522 lung) | TGI (NCI/ADR-RES ovarian) | TGI (OVCAR-3 ovarian) | TGI (OVCAR-4 ovarian) | TGI (OVCAR-5 ovarian) | TGI (OVCAR-8 ovarian) | TGI (PC-3 prostate) | TGI (RPMI-8226 leukemia) | TGI (RXF 393 renal) | TGI (SF-268 CNS) | TGI (SF-295 CNS) | TGI (SF-539 CNS) | TGI (SK-MEL-2 melanoma) | TGI (SK-MEL-28 melanoma) | TGI (SK-MEL-5 melanoma) | TGI (SK-OV-3 ovarian) | TGI (SN12C renal) | TGI (SNB-19 CNS) | TGI (SNB-75 CNS) | TGI (SW-620 colon) | TGI (T-47D breast) | TGI (TK-10 renal) | TGI (U251 CNS) | TGI (UACC-257 melanoma) | TGI (UACC-62 melanoma) | TGI (UO-31 renal)

— PubChem BioAssay (NCI)
